Earlier results in patent US11458170B2, “Pharmaceutical composition comprising erythrocytes encapsulating a PLP-dependent enzyme and, a non-phosphate PLP precursor” (ERYTECH PHARMA, priority 2014, dated 2022).
Where two headings read alike, the source gives them in different places.

For Tyrosine Phenol-Lyase [TPL], the “Share of the potential activity actually measured in the plasma” value (5 h after injection, no PLP administered) is listed as 7% and the “Share of the potential activity actually measured in the plasma” value (PLP intramuscular implant of spermaceti and groundnut oil) is listed as ≤ 25%.
